Only some compounds are listed: those with a hit (about 4.2% of all), similar ones and a draw of the others.
NALP1 yeast inh: NALP1 inflammasome inhibitors in reconstituted yeast, colorimetric, S. cerevisiae, triplicate retest; 0.61% of 280,000 active; S. cerevisiae NALP1/ASC/caspase-1 growth, X-gal OD620, 72 h; inhibition, % at 10 µM; in the data active = inhibition mostly above about 24%, no sharp cut-off; inactive = mostly below about 32%
MC4R antagonist: MC4R antagonists of cAMP signaling, primary screen, cell-based, TR-FRET, antagonist arm of biased-ligand search; Melanocortin receptor 4 (Homo sapiens), P32245; 0.48% of 360,000 active; inhibition, % at 6.5 µM; MC4R-expressing cells, MTII-stimulated cAMP, LANCE TR-FRET;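 active = inhibition above its plate's cutoff, the mean of tested wells on that plate plus 3 SD, cut at about 29% in these data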;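 also: 0% = Melanotan II alone and 100% = Melanotan II plus saturating MCL0020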
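Assay system: U2OS cells stably expressing human melanocortin 4 receptor (MC4R) / Dosing: 6.5 µM / Timing: compound 30 min, challenge 1 h, detection 1 h / Measured by: Eu-cAMP/anti-cAMP TR-FRET, emission 671 nm / Replicates: singlicate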
MC4R barr agon: MC4R agonists recruiting beta-arrestin, primary screen, cell-based, luminescence, agonist arm of biased-ligand search. U2OS MC4R beta-arrestin complementation; percent of melanotan II response, DMSO zero. 0.98% of 360,000 active. AID 540308, 2011. activation, % at 8.9 µM. Melanocortin receptor 4 (Homo sapiens), P32245;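 active = activation above a per-plate cutoff, the mean activation of sample wells on that plate plus 3 SD, cut at about 8% in these data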
HDAC3 inhib: HDAC3 deacetylase inhibitors, primary screen, biochemical, fluorescence, cell-free homogeneous; Histone deacetylase 3 (Homo sapiens), O15379; recombinant HDAC3, fluorogenic peptide/trypsin coupled; inhibition, % at 8.3 µM; 0.15% of 320,000 active; AID 2718, 2010; in the data active = inhibition above about 26%, passing the limit was not always enough
ALR H2O2 inh: inhibitors of human ALR sulfhydryl oxidase, primary screen, biochemical, H2O2 detection, HRP-luminol luminescence, single point. purified ALR, DTT oxidation. inhibition, % (concentration not given with the values). 290,000 compounds, 3.8% hits. AID 485317, 2010;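 active = mean and each replicate at 75% or more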;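 note: stock transfer was 7.5 nL into about 7.5 µL; 0% = neutral wells and 100% = wells with inactivated enzyme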
UUG fidelity: alters start codon recognition fidelity in yeast | S. cerevisiae UUG-firefly luciferase reporter, luminescence/redox ratio | activity score, % at 18.7 µM | hit rate 0.13% among 350,000 | AID 602363;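 active means replicate mean at a twofold rise or more, about +100% in these data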;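 further: firefly luciferase made from a UUG start codon reports start codon fidelity; reporter light over untreated wells divided by growth signal over untreated wells; some hits fall short of that in this replicate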
U2OS cAMP counter: nonselective cAMP signaling inhibitors, parental cells, counter-screen for MC4R biased antagonist project, cell-based, TR-FRET, U2OS, forskolin, triplicate | 26% of 1,600 active | AID 602193, 2012 | shares compounds with MC4R antagonist | LANCE TR-FRET | inhibition, % at 6.5 µM;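 active = mean inhibition over triplicates above the low-control well mean plus 3 SD, set per campaign, cut at about 13% in these data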;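 also: signal is single emission at 671 nm which falls as cellular cAMP rises; 0% = forskolin-stimulated wells and 100% = buffer without forskolin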
MC4R cAMP antag: MC4R cAMP antagonists, retest, confirmation, cell-based, TR-FRET | 27% of 1,600 active | MC4R-expressing cells, MTII-stimulated cAMP | inhibition, % at 6.5 µM | shares compounds with MC4R antagonist; in the data active = inhibition above about 29%;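 also: 0% = agonist stimulated wells alone and 100% = agonist stimulated wells plus saturating reference antagonist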
Starred values were filed as active, the others as inactive; . = no result; + = active, no number.

By UniProt entry, the sequences of proteins in these tests, tags left out.
Melanocortin receptor 4 (Homo sapiens), P32245, UniProt P32245, whole entry, looked up: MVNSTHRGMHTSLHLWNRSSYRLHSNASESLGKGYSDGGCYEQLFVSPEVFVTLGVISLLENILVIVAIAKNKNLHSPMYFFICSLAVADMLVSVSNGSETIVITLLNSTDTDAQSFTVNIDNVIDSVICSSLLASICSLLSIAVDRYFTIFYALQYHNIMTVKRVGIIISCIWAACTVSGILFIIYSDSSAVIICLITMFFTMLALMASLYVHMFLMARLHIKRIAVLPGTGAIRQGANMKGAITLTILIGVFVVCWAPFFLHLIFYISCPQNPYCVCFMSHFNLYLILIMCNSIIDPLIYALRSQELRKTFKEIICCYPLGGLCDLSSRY

A first look, 4 compounds:
Assay codes – A = NALP1 yeast inh; B = MC4R antagonist; C = MC4R barr agon; D = HDAC3 inhib; E = ALR H2O2 inh; F = UUG fidelity; G = U2OS cAMP counter; H = MC4R cAMP antag
mol: CC(C)CCNC(=O)c1c[nH]c2ccc(S(=O)(=O)N3CCOCC3)cc2c1=O
  A = 30 | B = 5 | C = -3 | D = -3 | E = 2 | F = . | G = . | H = .

mol: C/C=C/c1cnc2c(c1)C(=O)N([C@@H](C)CO)C[C@H](C)[C@H](CN(C)C(=O)NC1CCCCC1)O2
  A = . | B = . | C = . | D = . | E = . | F = 2 | G = . | H = .

mol: O=C(COc1cccc2c1CCNC2=O)Nc1ccc(Cl)cc1
  A = . | B = 29* | C = -4 | D = . | E = . | F = . | G = 5 | H = 0

mol: Cc1c(Cl)sn(-c2ccc(Cl)cc2)c1=O
  A = 98* | B = 73* | C = 0 | D = . | E = . | F = -10 | G = 13 | H = 70*

The whole of this part (from the top)
Assay codes – A = NALP1 yeast inh; B = MC4R antagonist; C = MC4R barr agon; D = HDAC3 inhib; E = ALR H2O2 inh; F = UUG fidelity; G = U2OS cAMP counter; H = MC4R cAMP antag
mol: CC(C)CCNC(=O)c1c[nH]c2ccc(S(=O)(=O)N3CCOCC3)cc2c1=O
  A = 30 | B = 5 | C = -3 | D = -3 | E = 2 | F = . | G = . | H = .

mol: C/C=C/c1cnc2c(c1)C(=O)N([C@@H](C)CO)C[C@H](C)[C@H](CN(C)C(=O)NC1CCCCC1)O2
  A = . | B = . | C = . | D = . | E = . | F = 2 | G = . | H = .

mol: O=C(COc1cccc2c1CCNC2=O)Nc1ccc(Cl)cc1
  A = . | B = 29* | C = -4 | D = . | E = . | F = . | G = 5 | H = 0

mol: Cc1c(Cl)sn(-c2ccc(Cl)cc2)c1=O
  A = 98* | B = 73* | C = 0 | D = . | E = . | F = -10 | G = 13 | H = 70*

mol: CCOc1ccc(-n2nc3c(=S)[nH]nc(C)c3c2C)cc1
  A = 13 | B = 92* | C = -1 | D = 4 | E = -3 | F = . | G = 55* | H = 107*

mol: CN(C)CC(=O)N1CC[C@@H]2[C@@H](CO)N(C)c3ccc(Br)cc3[C@@H]21
  A = . | B = . | C = . | D = . | E = . | F = -7 | G = . | H = .

mol: CC(C)Cc1ccc(C(C)CC2=CCC(CN(C)C)C2=O)cc1 (stereo not drawn)
  A = . | B = 39* | C = 7 | D = . | E = . | F = . | G = 2 | H = 46*

mol: O=C1N(Cc2cccc(Cl)c2)C[C@@H]2C[C@@H](c3cccc4cccnc34)N3CCC[C@@]123
  A = 4 | B = 34* | C = 0 | D = 3 | E = -1 | F = . | G = -1 | H = 0

mol: O=C1N(Cc2cccc(Cl)c2)C[C@@H]2C[C@@H](c3cccc4ncccc34)N3CCC[C@@]123
  A = -8 | B = 9 | C = -2 | D = 1 | E = -19 | F = -14 | G = . | H = .

mol: CC1(C)Cc2c(sc3[nH]c(=S)n(Cc4ccco4)c(=O)c23)CO1
  A = . | B = 34* | C = 0 | D = 5 | E = 98* | F = -4 | G = 7 | H = 17

mol: Cc1ccc(Cl)cc1NC(=S)N1CCC(c2ccccc2)C1 (stereo not drawn)
  A = -8 | B = 30* | C = -1 | D = 7 | E = 1 | F = . | G = -1 | H = -5

mol: Cc1ccc(S(=O)(=O)N(C)C[C@@H]2Oc3ccc(N(C)C)cc3C(=O)N([C@H](C)CO)C[C@H]2C)cc1
  A = . | B = . | C = . | D = . | E = . | F = -5 | G = . | H = .

mol: O=Cc1s/c(=N\S(=O)(=O)c2ccccc2)n(CCCCl)c1Cl
  A = 10 | B = 46* | C = -5 | D = . | E = . | F = . | G = 11 | H = 19

mol: O=C(C[C@@H]1C[C@H]2c3cc(NC(=O)NC4CCCC4)ccc3O[C@H]2[C@@H](CO)O1)NCc1ccc(Oc2ccccc2)cc1
  A = . | B = . | C = . | D = . | E = . | F = -11 | G = . | H = .

mol: O=C(Nc1ccccc1F)N1CCCCN2[C@H](C1)[C@@H](c1ccc(C3=CCCC3)cc1)[C@@H]2CO
  A = . | B = . | C = . | D = . | E = . | F = 18 | G = . | H = .

The listing continues.
Below each SMILES – NALP1 yeast inh, MC4R antagonist, MC4R barr agon, HDAC3 inhib, ALR H2O2 inh, UUG fidelity, U2OS cAMP counter, MC4R cAMP antag
- O=C(O)C12CC3CC(C1)CC(n1ncc(NCc4ccccc4)c(Cl)c1=O)(C3)C2
    19, 32*, 2, 1, 3, 5, -1, -10
- Cc1nc(N2CCC(C)CC2)c2c(C)c(C(=O)Nc3ccc(C)c(F)c3)sc2n1
    2, 12, 2, 2, 0, ., ., .
- Cc1nc(N2CCC(C)CC2)c2c(C)c(C(=O)Nc3ccccc3C(F)(F)F)sc2n1
    2, 30*, 2, -4, ., ., 2, 18
- C[C@@H]1CCCCO[C@@H](CN(C)C(=O)c2ccccc2)[C@H](C)CN([C@H](C)CO)C(=O)c2cc(NC(=O)Nc3ccc(C(F)(F)F)cc3)ccc2O1
    ., ., ., ., ., -17, ., .
- O=C(COc1ccc2ccccc2c1)N1CCN(C(=O)c2ccc([N+](=O)[O-])cc2)CC1
    -8, 32*, 0, -1, -26, -4, 2, 7
- CCOC(=O)C1(Cc2cccc(F)c2)CCN(Cc2cnn(CC)c2)CC1
    6, 29*, 1, 7, 5, ., 4, 13
- Brc1ccc(-c2nnc3sc(CNC4CCCC4)cn23)cc1
    31, 32*, 0, 1, -12, -13, 17*, 33*
- C[C@H]1CN([C@@H](C)CO)C(=O)c2cc(NS(=O)(=O)c3cn(C)cn3)ccc2O[C@@H]1CN(C)Cc1ccc(-c2ccccc2)cc1
    ., ., ., ., ., -4, ., .
- CCCN(C)C[C@H]1Oc2ncc(-c3cccnc3)cc2C(=O)N([C@@H](C)CO)C[C@H]1C
    ., ., ., ., ., -9, ., .
- COc1ccc(Nc2nc(-c3cccs3)nc3ccccc23)cc1
    25, 4, 1, 5, -6, -9, ., .
- COc1cccc(Nc2nc(-c3cccs3)nc3ccccc23)c1
    26, 32*, -1, 1, -5, -3, 8, 17
- Cc1ccc(NC(=O)NC(=O)c2cnccc2C(F)(F)F)c(C)c1
    32, 4, 2, 0, -3, -14, ., .
- Cc1ccc(N=C(NO)c2cnccc2C(F)(F)F)c(C)c1
    17, 30*, 1, -3, ., -15, -1, -10
- O=C(O)c1ccccc1-c1c2cc(I)c(=O)c(I)c-2oc2c(I)c(O)c(I)cc12
    ., +, -3, 10, 82*, -25, 105*, 164*
- O=Cc1ccc(-c2ccccc2C(=O)O)o1
    -5, -8, 7, 2, -5, ., ., .
- COc1ccc(NC(=O)N(C)C[C@@H]2OCCCC[C@H](C)Oc3ccc(NC(=O)NC(C)C)cc3C(=O)N([C@@H](C)CO)C[C@@H]2C)cc1
    ., ., ., ., ., 10, ., .
- C[C@H](O)C#Cc1ccc2c(c1)O[C@@H](CN(C)Cc1ccc(-c3ccccc3)cc1)[C@H](C)CN([C@@H](C)CO)S2(=O)=O
    ., 39*, -3, ., ., 22, 5, 29*
- CNC[C@@H]1Oc2ccc(NS(=O)(=O)c3cn(C)cn3)cc2C(=O)N([C@@H](C)CO)C[C@@H]1C
    ., ., ., ., ., -13, ., .
- COc1cccc(C(c2sc3nc(C)nn3c2O)N2CCc3ccccc3C2)c1 (stereo not drawn)
    ., 33*, 1, ., 1, -16, 0, -8
